From article PMC7700221, “Antiproliferative Homoleptic and Heteroleptic Phosphino Silver(I) Complexes: Effect of Ligand Combination on Their Biological Mechanism of Action” (Molecules, 2020)

Amino acid sequences for entries named in this document (tags omitted). Residues count along the entry.
UniProt Q16881, 151-649 limits assumed: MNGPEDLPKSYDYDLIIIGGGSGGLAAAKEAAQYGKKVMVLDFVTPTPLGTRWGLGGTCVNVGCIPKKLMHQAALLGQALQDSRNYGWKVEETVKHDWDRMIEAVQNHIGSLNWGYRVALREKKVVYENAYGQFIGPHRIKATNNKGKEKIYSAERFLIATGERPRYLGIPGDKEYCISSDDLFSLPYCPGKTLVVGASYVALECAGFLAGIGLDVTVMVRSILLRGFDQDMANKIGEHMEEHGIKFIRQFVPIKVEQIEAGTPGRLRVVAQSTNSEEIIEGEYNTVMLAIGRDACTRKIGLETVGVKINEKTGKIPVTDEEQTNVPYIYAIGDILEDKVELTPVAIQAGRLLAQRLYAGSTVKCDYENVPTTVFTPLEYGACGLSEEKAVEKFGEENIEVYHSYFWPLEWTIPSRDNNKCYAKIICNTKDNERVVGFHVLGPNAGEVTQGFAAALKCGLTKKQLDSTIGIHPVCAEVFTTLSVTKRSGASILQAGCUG

Molecular target: human TrxR1 (Homo sapiens, UniProt Q16881)
Settings: isolated human TrxR1, NADPH-dependent reduction of DTNB at 412 nm

## Auranofin
  IC50: 800 pM
